The numbers were not newly measured in patent US20060240051A1, “Eutectic blends containing a water soluble vitamin derivative” (priority 2005, published 2006), which cites them from elsewhere.

For data set [1] the following is noted: non-ionic surfactant.
The conditions of data set [2]: in water.
The conditions of data set [3]: normal conditions.

Turning to “d-α-tocopheryl polyethylene glycol 1000 succinate [Vitamin E TPGS]”, the HLB in data set [1] is on record as 16-18. In addition, the “concentration up to which solutions with water are formed” value in data set [2] is not above 20 weight %. For the same substance, in data set [3], the stability to hydrolysis result is “very stable and does not hydrolyze under normal conditions”.
